The values below come from paper PMC3429157.

By UniProt entry, the sequences of proteins in these tests, tags left out. Residues count along the entry.
UniProt P54725, 315-361: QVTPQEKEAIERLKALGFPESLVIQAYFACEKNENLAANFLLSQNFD

In assay [1] the target is UBA2 domain of hHR23a (RAD23A) (UniProt P54725). In words: NMR 1H-15N HSQC chemical-shift perturbation titration. As to conditions: pH 4.5, 23°C, no added salt stated (50 mM NaOAc).
Assay [2] addresses hHR23a UBA2 (Homo sapiens) (UniProt P54725). In words: NMR.

On to “Ubiquitin (monoUb) not stated (presumably none)”, for which the Kd in assay [1] amounted to 215000 ± 35000 nM.
“K48-linked diubiquitin (proximal Ub) (from UniProt P0CG47)” displayed a Kd in assay [2] of 1400 nM.
